Data on 1 molecule can be found in PubChem BioAssay AID2284382 (EPA ToxCast).

By AC50 is commonly meant the concentration giving half of the maximal activity seen.

The list shows a part of the results, in another mix than the full data. Inconclusive results are not listed. Calls of active or inactive are those of the source. Rule for the calls: active = hit-call score of the fitted dose curve at least 0.9, where 1 is the maximum; inconclusive = response in the unintended direction; inactive = score below 0.9.

The assay is described as follows: CCTE_Mundy_HCI_iCellGABA_NOG_NeuriteLength: CCTE's Neurite Outgrowth Assay in iCellGABA cells for Neurite Length, Mundy Lab. The procedure:
CCTE_Mundy_HCI_iCellGABA_NOG is a multiplexed, cell-based-readout assay that uses iCell GABANeurons from FUJIFILM Cellular Dynamics, Inc. (FCDI), human GABAergic enriched neurons derived from induced pluripotent stem (iPS) cells, with measurements taken at 50.33 hours after chemical dosing in a microplate: 96-well plate.CCTE_Mundy_HCI_iCellGABA_NOG_NeuriteLength is one of four components of the CCTE_Mundy_HCI_iCellGABA_NOG assay. It measures neurite outgrowth related to neurite length using High Content Imaging of fluorescently labelled markers.Data from the assay component CCTE_Mundy_HCI_iCellGABA_NOG_NeuriteLength was analyzed at the endpoint CCTE_Mundy_HCI_iCellGABA_NOG_NeuriteLength in the positive analysis fitting direction relative to DMSO as the negative control and baseline of activity. Using a type of morphology reporter, loss-of-signal activity can be used to understand developmental effects.
Exposure starts 2 hours post-plating by adding 10 ul of the working solution to 90 ul of media in the wells for a 1/10 dilution. […] A Cellomics ArrayScan VTi HCS Reader is used for automated image acquisition and analysis of neurite outgrowth.
On to `CC(C)OP(=S)(OC(C)C)SCCNS(=O)(=O)c1ccccc1`, for which the AC50 was active: 32.5 µM.
